Test system: S. gordonii
Conditions: low vs high arginine
[1] = downregulated, average across the locus

Structure (SMILES): N=C(N)NCCC[C@H](N)C(=O)O [L-arginine]
- Fold Change, SGO_2098 RpsD, ribosomal protein 54 (downregulated): −12.5
- Fold Change, SGO_0966-0978 Hsa, secondary secretion and glycosylation systems [1]: −4.9
- Fold Change, SGO_1591-593 ArcABC arginine catabolism [1]: −3.5
- Fold Change, SGO_1686-1700 Fab/acc locus, fatty acid biosynthesis [1]: −11.4
- Fold Change, SGO_2015-2028 Receptor polysaccharide biosynthesis [1]: −8.6
- Fold Change, SGO_1566-1569 ArgDBJC, arginine biosynthesis (upregulated, average fold change across the locus): 339.6
